Shown are actives, neighbours in structure and some others; about 0.43% of the full set was active somewhere.
EPAC2 ag – qHTS for Agonist of cAMP-regulated guanine nucleotide exchange factor 4 (EPAC2): primary screen; EPAC2 activation, biochemical qHTS; response scale: 100% = 6.5 mM cAMP response; Rap guanine nucleotide exchange factor 4 (Homo sapiens), Q8WZA2; hit rate 0.079% among 360,000; Potency, µM (doses to about 154 µM), for the others: at the highest dose activation, hits mostly activators; AID 720711, 2013; further: nearly all actives have a fitted effect of over 50% in size
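Readout is BODIPY fluorescence (480 nm excitation, 540 nm emission), which falls as labeled GDP is exchanged off Rap1B. EPAC2 at 100 nM acted on 250 nM RAP1B-BODIPY-GDP with 50 uM GDP present.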
Rango dissoc inh – qHTS Assay for Inhibitors of RanGTP induced Rango (Ran-regulated importin-beta cargo) - Importin beta complex dissociation; Biochemical FRET Rango-importin beta, RanGTP-induced dissociation; Potency, µM (series often up to 46.1 µM), for inactives: at the top dose activity change, negative = inhibition; hit rate 0.071% among 340,000; AID 540253, 2011; calls by dose curve; further: % of control where 0% means no effect; nearly all actives have a fitted effect of over 45% in size
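Quantitative HTS using a FRET biosensor: 0.1 uM Rango, 0.25 uM importin beta, 0.6 uM Ran, 2 mM GTP, 0.2 uM RCC1 final, PBS with DTT, Tween-20 and BSA. Post-read taken 45 min after Ran addition.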
Rango-impB inh – qHTS Assay for Inhibitors of Rango (Ran-regulated importin-beta cargo) - Importin beta complex formation; Potency, µM (top dose mostly 92.2 µM), for the others: at the highest dose inhibition of complex formation; Rango CFP/YFP FRET sensor + importin beta, 45 min; AID 540263, 2011; hit rate 0.031% among 340,000; calls by dose curve;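 further: 0% = DMSO wells and 100% = buffer wells lacking importin beta; nearly all actives have a fitted effect of over 15% in size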
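FRET biosensor Rango (snurportin 1 IBB between N-terminal EYFP and C-terminal Cerulean), 50 nM in PBS/1 mM DTT/0.02% Tween-20/0.1% BSA, preincubated 5 min RT with compound; 0.125 microM importin beta added, 45 min RT, CFP/YFP FRET ratio read.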
EPAC2 antagonist – qHTS for Antagonist of cAMP-regulated guanine nucleotide exchange factor 2 (EPAC2): primary screen. hit rate 0.18% among 360,000. Potency, µM (series often up to 114 µM), inactives show at the highest dose activity, negative = inhibition, most hits filed as inhibitors. Rap guanine nucleotide exchange factor 4 (Homo sapiens), Q8WZA2. EPAC2 GEF exchange of Rap1B-BODIPY-GDP, fluorescence; further: on the % scale 0 is the no-effect control and ±100 the full control effect; nearly all actives have a fitted effect of over 45% in size
EPAC1 antagonist – qHTS for Antagonist of cAMP-regulated guanine nucleotide exchange factor 3 (EPAC1): primary screen. Potency, µM (top dose mostly 115 µM), inactives show top-dose activity change, negative = inhibition, usual class: inhibitors. AID 720709, 2013. EPAC1 GEF assay, Rap1b-BODIPY-GDP exchange fluorescence. hit rate 0.14% among 360,000;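 further: plate controls were vehicle for no effect and positive control for full effect; nearly all actives have a fitted effect of over 50% in size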
EPAC1 ag – qHTS for Agonist of cAMP-regulated guanine nucleotide exchange factor 3 (EPAC1): primary screen | EPAC1 agonist qHTS, biochemical assay; response scale: 100% = response to 6.5 mM cAMP | Potency, µM (titrated, usually from 154 µM), inactives show at the highest dose activation, actives largely listed as activators | Rap guanine nucleotide exchange factor 3 (Homo sapiens), O95398 | hit rate 0.073% among 360,000 | AID 720707, 2013; further: nearly all actives have a fitted effect of over 60% in size
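EPAC1 100 nM, Rap1B–BODIPY-GDP 250 nM, unlabeled GDP 50 uM; compound titration; 5 min RT; kinetic read ex480/em540 at 5-min intervals ×30 min; data normalized to 6.5 mM cAMP agonist control.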
An asterisk follows results filed as active; ? = inconclusive; / = no result. Unless noted, the call rests on the fitted dose curve; in most records, active means well fitted curve in the direction sought with a large enough effect; inconclusive means small, poorly fitted or top-dose-only effect, or another doubt; inactive means no such curve, though single readings can be large; an effect the other way counts as inactive or inconclusive. Potency means the concentration at half of the fitted maximal effect.

The chains behind the UniProt entries cited, without tags or fusion partners.
Rap guanine nucleotide exchange factor 4 (Homo sapiens), Q8WZA2, UniProt Q8WZA2, whole entry, looked up: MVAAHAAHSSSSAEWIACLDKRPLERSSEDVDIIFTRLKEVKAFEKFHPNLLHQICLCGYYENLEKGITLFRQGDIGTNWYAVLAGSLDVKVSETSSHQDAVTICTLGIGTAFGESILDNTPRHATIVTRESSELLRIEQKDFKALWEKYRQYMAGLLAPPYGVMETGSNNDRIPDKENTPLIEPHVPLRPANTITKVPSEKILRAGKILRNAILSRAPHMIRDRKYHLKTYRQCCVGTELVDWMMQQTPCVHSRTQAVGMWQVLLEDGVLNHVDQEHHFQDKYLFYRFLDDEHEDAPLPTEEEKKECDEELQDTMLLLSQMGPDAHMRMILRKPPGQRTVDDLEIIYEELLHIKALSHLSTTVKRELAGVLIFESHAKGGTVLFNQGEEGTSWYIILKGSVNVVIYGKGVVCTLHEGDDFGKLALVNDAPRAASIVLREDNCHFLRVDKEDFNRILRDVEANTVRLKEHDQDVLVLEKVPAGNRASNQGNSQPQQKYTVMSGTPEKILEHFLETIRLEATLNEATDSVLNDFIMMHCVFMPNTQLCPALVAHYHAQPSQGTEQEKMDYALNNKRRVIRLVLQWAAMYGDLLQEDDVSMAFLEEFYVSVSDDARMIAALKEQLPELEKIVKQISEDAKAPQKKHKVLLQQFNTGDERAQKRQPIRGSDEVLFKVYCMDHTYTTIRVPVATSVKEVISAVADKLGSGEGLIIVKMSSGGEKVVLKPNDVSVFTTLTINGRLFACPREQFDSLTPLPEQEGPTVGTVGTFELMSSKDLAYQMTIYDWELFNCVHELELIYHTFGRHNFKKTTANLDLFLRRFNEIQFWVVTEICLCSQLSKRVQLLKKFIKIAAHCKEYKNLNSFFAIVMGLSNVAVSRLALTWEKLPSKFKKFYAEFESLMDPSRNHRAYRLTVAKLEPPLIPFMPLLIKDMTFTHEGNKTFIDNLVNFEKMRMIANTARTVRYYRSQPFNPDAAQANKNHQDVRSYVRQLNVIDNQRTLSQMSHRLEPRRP
Rap guanine nucleotide exchange factor 3 (Homo sapiens), O95398, UniProt O95398, whole entry, looked up: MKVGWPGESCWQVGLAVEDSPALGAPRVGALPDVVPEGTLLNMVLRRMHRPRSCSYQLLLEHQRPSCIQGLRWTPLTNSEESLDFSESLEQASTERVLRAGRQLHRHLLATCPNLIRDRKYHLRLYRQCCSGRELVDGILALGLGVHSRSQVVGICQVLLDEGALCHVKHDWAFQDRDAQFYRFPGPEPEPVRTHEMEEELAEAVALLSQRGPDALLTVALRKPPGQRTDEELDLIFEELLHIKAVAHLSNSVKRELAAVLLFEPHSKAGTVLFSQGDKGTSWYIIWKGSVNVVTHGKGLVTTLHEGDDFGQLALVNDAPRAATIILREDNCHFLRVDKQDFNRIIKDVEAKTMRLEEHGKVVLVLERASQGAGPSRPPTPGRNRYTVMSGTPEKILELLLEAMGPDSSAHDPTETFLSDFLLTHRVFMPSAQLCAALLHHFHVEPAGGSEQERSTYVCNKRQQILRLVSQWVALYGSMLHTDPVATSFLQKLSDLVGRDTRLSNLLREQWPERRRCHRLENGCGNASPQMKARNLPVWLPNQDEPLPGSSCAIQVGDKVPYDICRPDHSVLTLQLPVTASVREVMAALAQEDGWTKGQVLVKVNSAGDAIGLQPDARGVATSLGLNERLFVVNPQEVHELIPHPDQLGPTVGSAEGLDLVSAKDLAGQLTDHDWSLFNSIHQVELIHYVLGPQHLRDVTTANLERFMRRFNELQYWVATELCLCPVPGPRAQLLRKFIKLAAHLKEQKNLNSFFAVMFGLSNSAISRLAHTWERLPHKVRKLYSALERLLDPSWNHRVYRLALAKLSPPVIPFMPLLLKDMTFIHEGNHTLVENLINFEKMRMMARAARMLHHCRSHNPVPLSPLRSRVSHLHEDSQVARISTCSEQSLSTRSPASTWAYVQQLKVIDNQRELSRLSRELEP

Values in the order – EPAC1 ag | Rango dissoc inh | Rango-impB inh | EPAC1 antagonist | EPAC2 antagonist | EPAC2 ag
1) C#Cc1ccc([C@H]2C=C(C(=O)NCc3ccccc3)O[C@@H](OCC)[C@@H]2CCCO)cc1
 : -18.7% | -18.4% | 0.5% | -26.6% | 25.1µM* | -5.1%
2) CC(C)O/C(=N/S(=O)(=O)c1ccc(Cl)cc1)c1ccccc1
 : 1.6% | -4.2% | -0.6% | 4.5% | 50.1µM* | 14.2%
3) CC(C)O/C(=N\S(=O)(=O)c1ccc(Cl)cc1)c1ccccc1
 : -1.4% | 1.6% | -0.1% | 2.2% | ? | 4.4%
4) CCCSc1nc2ccsc2c(=O)n1CC
 : -8.7% | 1.4% | -1.4% | 14.4% | -2.7% | 1.8%
5) CCOC(=O)c1[nH]c(C)c(C(=O)NC(C)(C)C)c1C
 : 0.0% | 5.4% | 5.8% | -12.7% | 12.2% | 6.31µM*
6) CCOC(=O)c1[nH]c(C)c(C(=O)NC)c1C
 : -3.2% | -3.6% | -2.7% | 0.9% | 0.2% | 2.8%
7) CCC(=O)NC(c1ccc(OC)cc1)c1cc(Cl)c2cccnc2c1O (stereo not given)
 : -7.3% | -1.2% | 0.8% | 1.9% | ? | 26.6%
8) COc1ccc(C(NC(=O)c2cccnc2)c2cc(Cl)c3cccnc3c2O)cc1OC (stereo not given)
 : 5.7% | ? | 36.6µM* | 5.0% | 28.3% | 5.6%
9) CC(=O)NC(c1ccc(C)cc1)c1cc(Cl)c2cccnc2c1O (stereo not given)
 : -1.7% | -14.3% | 4.7% | -9.1% | 39.8µM* | 8.0%
10) CC(C)C(=O)NC(c1ccccc1)c1cc([N+](=O)[O-])c2cccnc2c1O (stereo not given)
 : 18.2% | 6.6% | -1.0% | 56.2µM* | -12.3% | 15.2%
11) CC(=O)NC(c1ccco1)c1cc(Cl)c2cccnc2c1O (stereo not given)
 : 5.3% | / | / | -11.6% | ? | 1.8%
12) Cc1cccc(S(=O)(=O)NC(=O)C2(C)CCN2C(=O)Cc2cc(F)ccc2F)c1 (stereo not given)
 : -10.8% | / | / | 100µM* | -11.2% | 8.5%
13) O=C(Cn1cnc2scc(-c3cccc([N+](=O)[O-])c3)c2c1=O)NCc1ccco1
 : 1.0% | 1.5% | -0.8% | 56.2µM* | 3.8% | -5.0%
14) O=C1S/C(=C\c2ccc(N3CCOCC3)o2)C(=O)N1c1ccccc1
 : 12.3% | ? | ? | -8.5% | 30.5% | 89.1µM*
15) O=C(CCSCc1ccccc1Cl)N1CCN(c2ccccn2)CC1
 : 3.1% | -1.5% | 4.0% | -7.4% | 0.1% | -1.3%

Next section; it opens with the 2 that closed the last part.
Values in the order – EPAC1 ag | Rango dissoc inh | Rango-impB inh | EPAC1 antagonist | EPAC2 antagonist | EPAC2 ag
14) O=C1S/C(=C\c2ccc(N3CCOCC3)o2)C(=O)N1c1ccccc1
 : 12.3% | ? | ? | -8.5% | 30.5% | 89.1µM*
15) O=C(CCSCc1ccccc1Cl)N1CCN(c2ccccn2)CC1
 : 3.1% | -1.5% | 4.0% | -7.4% | 0.1% | -1.3%
16) Nc1nnc(CC(=O)N/N=C/c2cc([N+](=O)[O-])cc(Br)c2O)s1
 : -7.5% | -11.3% | ? | 50.1µM* | -1.1% | -2.1%
17) Nc1nnc(CC(=O)N/N=C/c2cccc([N+](=O)[O-])c2)s1
 : -3.1% | 3.1% | -0.5% | -4.3% | 6.8% | 4.8%
18) COc1cc2c(cc1OC)CN(c1ncccc1[N+](=O)[O-])CC2
 : 7.1% | -11.5% | -3.2% | 0.0% | -19.9% | 15.3%
19) O=C(c1ccccc1)N1N=C(c2cccs2)CC1c1ccccc1O (stereo not given)
 : 4.1% | -5.0% | 5.2% | -18.2% | -29.2% | 8.4%
20) COC(=O)c1ccc(C2N=C(c3cccs3)CC(c3ccccc3O)N2)cc1 (stereo not given)
 : 7.8% | 14.6µM* | ? | -9.3% | 5.5% | 12.4%
21) O=C(C1CCN(S(=O)(=O)c2cccc3cccnc23)CC1)N1CCN(C2CCCCC2)CC1
 : 9.5% | -1.4% | -0.3% | 21.5% | 3.6% | 3.8%
22) Fc1ccc(C(Nc2ccccn2)c2c[nH]c3ccccc23)cc1 (stereo not given)
 : 9.7% | 0.0% | -0.5% | -15.5% | 44.7µM* | 2.5%
23) CC(C)c1cc(=O)oc2c3c4c(cc12)CCCN4CCC3
 : 16.4% | ? | ? | -1.9% | -6.3% | 18.1%
24) O=c1oc2c3c4c(cc2c(C(F)(F)F)c1CCN1CCOCC1)CCCN4CCC3
 : ? | ? | ? | 99.9% | 59.8% | 112µM*
25) CC(C)(C)NC(=O)C(OC(=O)c1cccs1)c1ccc(C#N)cc1 (stereo not given)
 : -8.0% | -13.7% | -1.7% | 5.6% | 4.8% | -2.3%
26) Cc1ccc(S(=O)(=O)/N=C2/NC(=O)/C(=C\c3ccccc3)S2)cc1
 : -7.5% | 18.4% | -2.5% | ? | ? | -17.6%
27) Cc1ccc(/C=C2\S/C(=N/S(=O)(=O)c3cccs3)NC2=O)cc1
 : -9.4% | -6.2% | 5.9% | 39.8µM* | ? | -8.4%
28) O=C(Nc1ccc(-c2nc3ccc(NC(=O)c4cccs4)cc3[nH]2)cc1)c1cccs1
 : 11.4% | 19.7% | 4.7% | ? | 50.1µM* | ?
29) O=C(Nc1ccc2nc(-c3cccs3)[nH]c2c1)c1cccs1
 : 5.1% | 1.7% | 0.4% | -22.5% | 10.0% | 9.1%
30) CC1=Nc2ccccc2/C1=C/c1sc(=S)n(-c2cccc(C(=O)O)c2)c1O
 : -13.9% | ? | ? | 56.2µM* | ? | 3.5%

Printed as active in Rango dissoc inh, among the entries above:
# | Molecule | Rango dissoc inh | Rango-impB inh | EPAC1 antagonist | EPAC2 antagonist | EPAC2 ag
20 | COC(=O)c1ccc(C2N=C(c3cccs3)CC(c3ccccc3O)N2)cc1 (stereo not given) | 14.6µM* | ? | -9.3% | 5.5% | 12.4%

More compounds
Values in the order – EPAC1 ag | Rango dissoc inh | Rango-impB inh | EPAC1 antagonist | EPAC2 antagonist | EPAC2 ag
31) Oc1c(C=C2N=c3ccccc3=N2)sc(=S)n1-c1ccccc1
 : -7.9% | -10.1% | -0.2% | 2.3% | 3.4% | 3.0%
32) CSc1ccc(CN(C)C(=O)c2cc(Cl)c3c(c2)OCCO3)cc1
 : 8.1% | 10.3% | -0.8% | -9.9% | -0.7% | 16.6%
33) Nc1ccc(N2CCCCC2)c2nonc12
 : -10.8% | -16.8% | 0.8% | 10µM* | ? | 18.2%
34) CCc1nc(CN2CCN(Cc3ccc(F)c(F)c3)C(CCO)C2)c(C)[nH]1 (stereo not given)
 : 11.5% | -4.9% | -0.6% | 1.4% | 3.3% | 8.8%
35) COc1ccc(S(=O)(=O)N2CCOC23CCN(S(=O)(=O)c2cccs2)CC3)cc1
 : 56.2µM* | -2.0% | -0.2% | -4.1% | 4.4% | -1.4%
36) COc1ccc(S(=O)(=O)N2CCC3(CC2)OCCN3S(=O)(=O)c2ccc(OC)cc2)cc1
 : -7.1% | -1.0% | 0.1% | 1.6% | -2.5% | 12.5%
37) CC(=O)Nc1c2c(nn1-c1ccc(C)cc1)CSC2
 : -4.9% | 2.3% | 0.7% | -6.8% | -1.0% | 8.0%

Look-ups from the results shown:
Value of #33 under EPAC2 ag: 18.2%
Value of #37 under Rango dissoc inh: 2.3%
Value of #31 under EPAC1 ag: -7.9%
Value of #32 under Rango dissoc inh: 10.3%
Value of #36 under EPAC2 ag: 12.5%

Screening data (PubChem)
